Protein sequences, listed by entry. Tags and fused reporters are not part of them. Lines headed by an entry give the natural chain unless they say otherwise; changes in a name come on top.
UniProt P33533, whole entry, looked up: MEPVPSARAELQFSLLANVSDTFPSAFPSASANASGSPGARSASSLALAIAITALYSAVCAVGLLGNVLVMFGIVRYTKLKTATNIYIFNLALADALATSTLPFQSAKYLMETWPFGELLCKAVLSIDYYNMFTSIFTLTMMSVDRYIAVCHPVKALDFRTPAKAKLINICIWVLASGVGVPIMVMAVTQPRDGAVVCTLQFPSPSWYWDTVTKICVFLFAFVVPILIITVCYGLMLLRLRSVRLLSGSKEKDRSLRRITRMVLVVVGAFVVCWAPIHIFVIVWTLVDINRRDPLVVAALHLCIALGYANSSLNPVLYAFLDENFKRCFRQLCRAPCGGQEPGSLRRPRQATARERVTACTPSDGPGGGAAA
UniProt P33535, whole entry, looked up: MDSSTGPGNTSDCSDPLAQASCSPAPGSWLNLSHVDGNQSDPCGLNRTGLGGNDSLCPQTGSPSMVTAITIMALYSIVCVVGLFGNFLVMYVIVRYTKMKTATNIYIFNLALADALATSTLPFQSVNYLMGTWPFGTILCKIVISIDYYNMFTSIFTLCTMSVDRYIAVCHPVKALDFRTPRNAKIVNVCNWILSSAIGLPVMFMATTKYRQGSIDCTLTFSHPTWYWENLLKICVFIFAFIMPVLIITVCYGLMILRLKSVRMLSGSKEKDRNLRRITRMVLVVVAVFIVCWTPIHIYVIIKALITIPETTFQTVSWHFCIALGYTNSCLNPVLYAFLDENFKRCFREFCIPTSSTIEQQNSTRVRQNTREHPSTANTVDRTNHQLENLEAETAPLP
UniProt P41144: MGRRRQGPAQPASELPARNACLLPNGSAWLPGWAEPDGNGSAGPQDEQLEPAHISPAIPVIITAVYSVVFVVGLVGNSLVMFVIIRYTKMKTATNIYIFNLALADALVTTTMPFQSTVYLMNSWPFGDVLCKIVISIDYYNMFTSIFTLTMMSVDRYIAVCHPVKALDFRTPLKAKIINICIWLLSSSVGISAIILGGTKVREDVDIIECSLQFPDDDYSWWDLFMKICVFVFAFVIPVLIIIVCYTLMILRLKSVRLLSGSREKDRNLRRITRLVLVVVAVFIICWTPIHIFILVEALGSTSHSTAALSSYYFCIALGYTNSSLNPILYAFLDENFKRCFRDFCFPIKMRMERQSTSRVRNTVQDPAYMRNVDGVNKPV

According to ChEMBL document CHEMBL1149096 (J Med Chem, 2004):

What was measured:
[1] = molecular target: Delta-type opioid receptor (Rattus norvegicus, UniProt P33533); assay: Binding affinity at opioid receptor delta 1 by displacement of [3H]DADLE in rat brain membrane
Mu-type opioid receptor = Mu-type opioid receptor (Rattus norvegicus, UniProt P33535)
[2] = molecular target: Kappa-type opioid receptor (Cavia porcellus, UniProt P41144)

In the case of `CN(C(=O)Cc1ccccc1)[C@H]1CC[C@@]2(CCCO2)C[C@@H]1N1CCCC1`, the Ki [1] is reported as > 5 µM, the Ki (Mu-type opioid receptor) is reported as 7.25 µM and the Ki [2] is reported as 0.0048 µM.
